Measurements taken from ChEMBL document CHEMBL2384988, “Discovery of 2-{3-[2-(1-isopropyl-3-methyl-1H-1,2-4-triazol-5-yl)-5,6-dihydrobenzo[f]imidazo[1,2-d][1,4]oxazepin-9-yl]-1H-pyrazol-1-yl}-2-methylpropanamide (GDC-0032): a β-sparing phosphoinositide 3-kinase inhibitor with high unbound exposure and robust in vivo antitumor activity” (J Med Chem, 2013).

The chains behind the UniProt entries cited, without tags or fusion partners. Where a name states a change or a piece, a line headed by the entry shows the natural chain unless it says otherwise.
UniProt P48736: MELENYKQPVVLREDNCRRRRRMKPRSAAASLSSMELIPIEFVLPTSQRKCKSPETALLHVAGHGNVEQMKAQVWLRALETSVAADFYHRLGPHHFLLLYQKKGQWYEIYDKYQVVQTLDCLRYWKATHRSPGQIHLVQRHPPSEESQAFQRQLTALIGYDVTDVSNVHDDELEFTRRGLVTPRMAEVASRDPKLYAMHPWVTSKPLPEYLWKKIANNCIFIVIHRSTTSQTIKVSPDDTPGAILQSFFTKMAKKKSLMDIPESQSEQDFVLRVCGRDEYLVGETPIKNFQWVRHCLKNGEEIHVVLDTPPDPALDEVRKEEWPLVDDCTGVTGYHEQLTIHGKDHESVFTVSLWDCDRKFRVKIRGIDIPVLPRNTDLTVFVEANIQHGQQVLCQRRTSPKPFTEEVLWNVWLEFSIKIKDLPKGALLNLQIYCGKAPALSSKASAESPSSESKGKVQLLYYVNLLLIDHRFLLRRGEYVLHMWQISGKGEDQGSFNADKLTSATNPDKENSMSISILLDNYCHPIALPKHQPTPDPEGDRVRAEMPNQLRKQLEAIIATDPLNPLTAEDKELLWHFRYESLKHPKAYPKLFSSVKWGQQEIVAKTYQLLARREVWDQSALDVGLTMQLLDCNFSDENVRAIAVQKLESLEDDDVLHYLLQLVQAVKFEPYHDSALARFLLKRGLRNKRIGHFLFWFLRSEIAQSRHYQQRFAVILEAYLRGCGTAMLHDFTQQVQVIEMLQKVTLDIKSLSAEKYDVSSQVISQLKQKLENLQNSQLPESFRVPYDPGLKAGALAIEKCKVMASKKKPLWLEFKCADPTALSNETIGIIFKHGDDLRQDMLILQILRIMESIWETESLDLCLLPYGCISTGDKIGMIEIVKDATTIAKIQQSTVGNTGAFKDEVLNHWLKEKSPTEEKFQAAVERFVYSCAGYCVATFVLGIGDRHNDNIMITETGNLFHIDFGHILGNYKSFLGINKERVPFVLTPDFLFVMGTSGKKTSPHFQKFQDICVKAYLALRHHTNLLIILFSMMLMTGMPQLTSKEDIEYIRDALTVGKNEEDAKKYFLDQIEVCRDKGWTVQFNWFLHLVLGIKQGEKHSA
UniProt P42336, whole entry: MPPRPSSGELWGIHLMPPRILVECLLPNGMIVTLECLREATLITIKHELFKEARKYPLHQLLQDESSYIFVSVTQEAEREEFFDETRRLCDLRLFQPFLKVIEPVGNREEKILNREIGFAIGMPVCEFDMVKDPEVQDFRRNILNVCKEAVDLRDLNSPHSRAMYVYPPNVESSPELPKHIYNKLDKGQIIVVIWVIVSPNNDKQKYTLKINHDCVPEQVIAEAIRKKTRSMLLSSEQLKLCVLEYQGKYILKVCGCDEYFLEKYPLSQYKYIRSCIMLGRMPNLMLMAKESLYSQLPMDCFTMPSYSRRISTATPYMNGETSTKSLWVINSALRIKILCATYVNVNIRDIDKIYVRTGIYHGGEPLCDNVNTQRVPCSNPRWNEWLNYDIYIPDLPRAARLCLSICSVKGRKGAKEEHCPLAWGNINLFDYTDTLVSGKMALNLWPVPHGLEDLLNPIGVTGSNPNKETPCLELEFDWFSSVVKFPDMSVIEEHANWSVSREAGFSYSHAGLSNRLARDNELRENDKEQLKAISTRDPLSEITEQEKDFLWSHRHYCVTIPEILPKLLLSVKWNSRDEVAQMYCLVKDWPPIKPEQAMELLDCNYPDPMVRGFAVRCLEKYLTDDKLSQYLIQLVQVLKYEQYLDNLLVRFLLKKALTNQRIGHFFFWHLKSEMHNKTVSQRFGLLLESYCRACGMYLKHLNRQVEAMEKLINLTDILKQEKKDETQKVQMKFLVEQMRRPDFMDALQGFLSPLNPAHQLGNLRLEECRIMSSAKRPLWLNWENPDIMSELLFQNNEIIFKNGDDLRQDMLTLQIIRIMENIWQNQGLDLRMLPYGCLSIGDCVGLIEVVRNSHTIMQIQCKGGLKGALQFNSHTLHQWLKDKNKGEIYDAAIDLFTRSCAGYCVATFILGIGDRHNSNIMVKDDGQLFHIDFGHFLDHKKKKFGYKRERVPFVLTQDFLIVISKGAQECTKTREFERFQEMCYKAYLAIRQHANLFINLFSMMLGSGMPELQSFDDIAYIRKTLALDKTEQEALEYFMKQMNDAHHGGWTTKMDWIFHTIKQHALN
UniProt O00750: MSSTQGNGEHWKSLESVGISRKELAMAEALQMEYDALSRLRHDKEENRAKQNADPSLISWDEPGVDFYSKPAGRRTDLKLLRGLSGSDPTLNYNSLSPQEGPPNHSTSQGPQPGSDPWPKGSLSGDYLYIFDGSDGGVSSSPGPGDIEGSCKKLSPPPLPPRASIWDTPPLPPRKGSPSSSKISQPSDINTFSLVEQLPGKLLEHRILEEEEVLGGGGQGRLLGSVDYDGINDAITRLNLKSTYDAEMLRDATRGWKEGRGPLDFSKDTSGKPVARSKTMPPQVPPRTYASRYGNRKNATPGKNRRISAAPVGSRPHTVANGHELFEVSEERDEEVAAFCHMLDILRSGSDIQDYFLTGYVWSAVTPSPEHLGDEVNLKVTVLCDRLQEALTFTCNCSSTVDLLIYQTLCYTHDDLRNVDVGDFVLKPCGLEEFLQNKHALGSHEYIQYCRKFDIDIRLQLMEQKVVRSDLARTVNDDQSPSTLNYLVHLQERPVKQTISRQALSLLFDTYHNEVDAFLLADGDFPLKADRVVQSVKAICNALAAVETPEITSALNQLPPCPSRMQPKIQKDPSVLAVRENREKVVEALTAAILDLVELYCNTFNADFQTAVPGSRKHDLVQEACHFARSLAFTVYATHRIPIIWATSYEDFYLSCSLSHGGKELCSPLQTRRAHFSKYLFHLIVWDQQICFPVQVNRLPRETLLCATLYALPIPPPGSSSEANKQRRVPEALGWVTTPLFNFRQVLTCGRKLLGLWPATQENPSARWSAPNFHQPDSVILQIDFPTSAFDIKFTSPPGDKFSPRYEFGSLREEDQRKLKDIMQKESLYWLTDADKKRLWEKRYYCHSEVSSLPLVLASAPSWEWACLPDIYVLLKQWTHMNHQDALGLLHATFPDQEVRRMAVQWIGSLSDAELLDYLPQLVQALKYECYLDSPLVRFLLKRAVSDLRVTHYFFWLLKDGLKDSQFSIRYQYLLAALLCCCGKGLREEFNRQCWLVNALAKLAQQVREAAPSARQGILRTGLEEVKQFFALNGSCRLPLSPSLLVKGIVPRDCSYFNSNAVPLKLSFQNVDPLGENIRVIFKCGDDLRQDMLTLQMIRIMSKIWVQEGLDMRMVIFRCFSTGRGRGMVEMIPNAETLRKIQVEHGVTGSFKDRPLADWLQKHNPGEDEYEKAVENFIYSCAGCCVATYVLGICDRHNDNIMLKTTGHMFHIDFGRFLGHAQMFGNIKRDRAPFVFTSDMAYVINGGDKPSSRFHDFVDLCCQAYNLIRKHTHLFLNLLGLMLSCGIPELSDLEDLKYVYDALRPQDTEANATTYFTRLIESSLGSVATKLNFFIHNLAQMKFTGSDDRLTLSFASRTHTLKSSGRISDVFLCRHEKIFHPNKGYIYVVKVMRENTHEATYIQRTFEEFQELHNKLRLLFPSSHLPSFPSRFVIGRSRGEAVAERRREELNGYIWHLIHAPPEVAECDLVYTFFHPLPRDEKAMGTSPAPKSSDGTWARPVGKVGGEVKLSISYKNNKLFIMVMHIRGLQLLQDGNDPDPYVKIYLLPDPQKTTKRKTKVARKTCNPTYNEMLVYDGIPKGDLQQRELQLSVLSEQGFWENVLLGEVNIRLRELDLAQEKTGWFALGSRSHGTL
UniProt Q8NEB9, whole entry: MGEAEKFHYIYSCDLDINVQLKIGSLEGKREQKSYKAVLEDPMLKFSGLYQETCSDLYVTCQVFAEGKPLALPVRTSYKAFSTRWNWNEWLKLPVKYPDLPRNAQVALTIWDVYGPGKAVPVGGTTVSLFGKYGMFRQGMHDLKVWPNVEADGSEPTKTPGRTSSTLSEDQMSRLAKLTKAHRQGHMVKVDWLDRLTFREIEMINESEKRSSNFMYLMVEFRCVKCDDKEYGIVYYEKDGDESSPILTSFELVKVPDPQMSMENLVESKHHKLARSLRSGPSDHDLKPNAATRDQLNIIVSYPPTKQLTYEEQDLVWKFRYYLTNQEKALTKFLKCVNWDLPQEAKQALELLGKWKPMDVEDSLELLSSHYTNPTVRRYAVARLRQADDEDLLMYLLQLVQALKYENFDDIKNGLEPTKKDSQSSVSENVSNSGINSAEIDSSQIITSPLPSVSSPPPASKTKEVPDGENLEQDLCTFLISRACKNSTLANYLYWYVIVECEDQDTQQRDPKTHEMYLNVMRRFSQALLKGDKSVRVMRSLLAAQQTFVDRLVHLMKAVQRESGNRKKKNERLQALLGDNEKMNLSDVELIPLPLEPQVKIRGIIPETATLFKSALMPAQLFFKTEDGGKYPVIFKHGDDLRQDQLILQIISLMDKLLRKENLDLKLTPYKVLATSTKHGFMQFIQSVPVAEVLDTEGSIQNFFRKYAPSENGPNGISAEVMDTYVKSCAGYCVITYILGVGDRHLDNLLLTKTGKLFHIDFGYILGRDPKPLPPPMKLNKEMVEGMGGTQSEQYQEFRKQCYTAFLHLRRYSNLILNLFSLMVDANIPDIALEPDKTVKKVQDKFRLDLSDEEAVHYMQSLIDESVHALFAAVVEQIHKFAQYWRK

How the values were obtained:
[1] = target: Phosphatidylinositol 4,5-bisphosphate 3-kinase catalytic subunit gamma isoform (Homo sapiens) (UniProt P48736); assay: Inhibition of PI3Kgamma (unknown origin) at 1 uM
[2] = target: T1, Phosphatidylinositol 4,5-bisphosphate 3-kinase catalytic subunit alpha isoform (Homo sapiens, UniProt P42336)
[3] = target: T1, Phosphatidylinositol 4,5-bisphosphate 3-kinase catalytic subunit alpha isoform; remark: listed apart in the source
[4] = target: Phosphatidylinositol 4-phosphate 3-kinase C2 domain-containing subunit beta (Homo sapiens, UniProt O00750); assay: Inhibition of PI3KC2beta (unknown origin) at 1 uM
[5] = target: Phosphatidylinositol 3-kinase catalytic subunit type 3 (Homo sapiens, UniProt Q8NEB9); assay: Inhibition of human VPS34 at 1 uM

Cc1nc(-c2cn3c(n2)-c2ccc(-c4cnn(C(C)(C)C(N)=O)c4)cc2OCC3)n(C(C)C)n1 [TASELISIB]
inhibition [1]: 90.6%
IC50 [2]: 31 nM
IC50 [3]: 4 nM
inhibition [4]: 80.4%
inhibition [5]: 69.9%
